Measured values: US20230212120A1, “SMALL MOLECULE INHIBITORS OF GRK5 AND GRK5 SUBFAMILY MEMBERS AND USES THEREOF” (The Regents of the University of Michigan, priority 2020, published 2023)
pIC50: −log10 of the molar value.

Protein sequences, listed by entry. Tags and fused reporters are not part of them.
UniProt P34947, whole entry, looked up: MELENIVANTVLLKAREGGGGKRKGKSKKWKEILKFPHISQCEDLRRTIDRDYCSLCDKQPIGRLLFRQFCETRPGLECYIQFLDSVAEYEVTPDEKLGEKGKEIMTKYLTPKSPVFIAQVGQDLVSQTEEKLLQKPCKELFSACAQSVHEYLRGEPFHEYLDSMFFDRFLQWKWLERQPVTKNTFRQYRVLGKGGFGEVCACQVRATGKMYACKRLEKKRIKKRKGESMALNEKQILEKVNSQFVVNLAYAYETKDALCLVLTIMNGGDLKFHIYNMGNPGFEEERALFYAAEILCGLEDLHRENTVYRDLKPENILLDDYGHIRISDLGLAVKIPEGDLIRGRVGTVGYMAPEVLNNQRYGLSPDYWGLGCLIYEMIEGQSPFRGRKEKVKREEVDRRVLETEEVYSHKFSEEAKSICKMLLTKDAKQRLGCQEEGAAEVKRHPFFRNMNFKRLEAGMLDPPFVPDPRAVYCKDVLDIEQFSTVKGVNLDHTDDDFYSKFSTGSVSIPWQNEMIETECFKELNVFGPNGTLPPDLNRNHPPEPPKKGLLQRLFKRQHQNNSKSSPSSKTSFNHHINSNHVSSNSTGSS

Target: GRK5 (Homo sapiens, UniProt P34947)
Assay: radiometric GRK5 inhibition assay (tubulin phosphorylation)
Conditions: read-out: GRK5 IC50

Cc1[nH]c(/C=C2\C(=O)Nc3ccc(C(=O)N[C@@H](c4ccccc4)C(C)C)cc32)c(C)c1NC(=O)CCl [Compound 9r, (R,Z)-3-((4-(2-chloroacetamido)-3,5-dimethyl-1H-pyrrol-2-yl)methylene)-N-(2-methyl-1-phenylpropyl)-2-oxoindoline-5-carboxamide]
pIC50: 4.92
